The record followed here is article PMC4059180 (Journal of medicinal chemistry, 2013).

The subject of this data set is mFAP transfected HEK293 cells. Particulars: 48 h, CellTiter-Blue. On the technique in general: The colour change of resazurin is a common sign of viable cells or microbes.

For the compound `CC(C)[C@H](N)C(=O)N1CCC[C@H]1B(O)O` [Compound 20, (S)-Valinyl-(R)-boroproline], the cytotoxicity result is recorded as “lack cytotoxicity”.
